Source: ChEMBL document CHEMBL1137235, “Bis-pyridiumaldoxime reactivators connected with CH2O(CH2)n OCH2 linkers between pyridinium rings and their reactivity against VX” (2006)

Key:
[1] = target: T1, Acetylcholinesterase (Rattus norvegicus) (UniProt P37136); assay: Reactivation of VX-inhibited AChE in rat brain homogenate at 1000 uM; parameters: scale not given: the % may be the effect or the level left
T1 sequence (whole entry): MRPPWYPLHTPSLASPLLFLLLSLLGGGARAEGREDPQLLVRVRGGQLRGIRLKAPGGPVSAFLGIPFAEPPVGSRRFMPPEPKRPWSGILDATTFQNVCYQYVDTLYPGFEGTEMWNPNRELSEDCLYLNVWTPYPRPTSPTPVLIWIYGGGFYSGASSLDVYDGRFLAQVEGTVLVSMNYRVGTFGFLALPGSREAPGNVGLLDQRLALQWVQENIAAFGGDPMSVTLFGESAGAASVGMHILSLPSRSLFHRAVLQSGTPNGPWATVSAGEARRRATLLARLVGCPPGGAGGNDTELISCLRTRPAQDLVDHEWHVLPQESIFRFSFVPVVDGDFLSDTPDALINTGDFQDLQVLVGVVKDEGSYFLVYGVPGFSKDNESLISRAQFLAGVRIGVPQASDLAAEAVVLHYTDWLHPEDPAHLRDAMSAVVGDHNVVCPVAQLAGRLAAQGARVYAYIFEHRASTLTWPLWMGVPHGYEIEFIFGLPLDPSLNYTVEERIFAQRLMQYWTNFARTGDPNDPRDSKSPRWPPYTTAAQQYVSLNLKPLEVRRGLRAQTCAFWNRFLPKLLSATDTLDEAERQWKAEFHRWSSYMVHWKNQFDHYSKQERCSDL

[2] = target: T1, Acetylcholinesterase (Rattus norvegicus); assay: Reactivation of VX-inhibited AChE in rat brain homogenate at 10 uM; parameters: scale not given: the % may be the effect or the level left

Question: What does the source list for NC(=O)c1cc[n+](COC[n+]2ccccc2/C=N/O)cc1?
Answer: Activity [1]: 28%; Activity [2]: 13%
